Laboratory results: patent publication US9597314B2, “Beta-lactamylalkanoic acids for treating premenstrual disorders” (AZEVAN PHARMACEUTICALS, INC., priority 2005, dated 2017)

By UniProt entry, the sequences of proteins in these tests, tags left out.
UniProt P37288, whole entry: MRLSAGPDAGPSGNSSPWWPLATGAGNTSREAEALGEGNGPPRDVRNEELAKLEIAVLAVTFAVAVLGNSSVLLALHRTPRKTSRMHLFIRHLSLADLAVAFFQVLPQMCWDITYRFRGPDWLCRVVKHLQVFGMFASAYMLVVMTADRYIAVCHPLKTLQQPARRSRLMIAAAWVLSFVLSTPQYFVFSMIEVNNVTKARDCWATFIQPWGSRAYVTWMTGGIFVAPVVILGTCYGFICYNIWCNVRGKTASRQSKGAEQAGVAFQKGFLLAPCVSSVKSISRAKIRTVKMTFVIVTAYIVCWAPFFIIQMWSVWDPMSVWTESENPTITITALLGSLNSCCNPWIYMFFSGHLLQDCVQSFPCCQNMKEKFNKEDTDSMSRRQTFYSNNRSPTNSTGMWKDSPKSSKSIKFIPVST

Target: V1a (Homo sapiens, UniProt P37288)
Assay: Human vasopression V1a receptor binding assay
Set-up: host or cells: CHO cells (hV1a cell line), whole adherent cells
Conditions: hV1a cell line (CHO)
Method: Human vasopression V1a receptor binding assay. A cell line expressing the human V1a receptor in CHO cells (henceforth referred to as the hV1a cell line) was obtained from Dr. Michael Brownstein, NIMH, Bethesda, Md., USA. The hV1a cDNA sequence is described by Thibonnier et al., Journal of Biological Chemistry, 269, 3304-3310 (1994), and the expression method was the same as described by Morel et al. (1992). The hV1a cell line was grown in alpha-MEM with 10% fetal bovine serum and 250 ug/ml G418 (Gibco, Grand Island, N.Y., USA). For competitive binding assay, hV1a cells were plated into 6-well culture plate at 1:10 dilution from a confluency flask, and maintained in culture for at least two days. Culture medium was then removed, cells were washed with 2 ml binding buffer (25 mM Hepes, 0.25% BSA, 1×DMEM, PH=7.0). To each well, 990 μl binding buffer containing 1 nM 3H-AVP was added, and followed by 10 μl series diluted Example compounds dissolved in DMSO. […] 100 nM cold AVP (Sigma) was used to assess non-specific binding. Cells were incubated for 45 minutes at 37° C., assay mixture was removed and each well was washed three times with PBS (pH=7.4). 1 ml 2% SDS was added per well and plates were let sit for 30 minutes. […] Samples were counted in a liquid scintillation counter (Beckman LS3801). IC50 values were calculated by Prism Curve fitting software. […]

- IC50 (1 nM 3H-AVP, Table 17, read-out: V1a Binding Affinity (IC50 (nM))): 1.83 nM
- pKi (Table 18): 8.95
Structure (SMILES): O=C(NCc1cccc(C(F)(F)F)c1F)[C@@H](CC(=O)N1CCC(N2CCCCC2)CC1)N1C(=O)[C@@H](N2C(=O)OC[C@@H]2c2ccccc2)[C@H]1/C=C/c1ccccc1 [Example 222, 2(R)-[[4-(Piperidinyl)piperidinyl]carbonylmethyl]-2-[3(S)-(4(S)-phenyloxazolidin-2-on-3-yl)-4(R)-(2-styryl)azetidin-2-on-1-yl]acetic acid N-(2-fluoro-3-trifluoromethylbenzyl)carboxamide]

pKi: −log10 of the molar value.
